Results on seven compounds are retold here after patent publication US20260184708A1, “PYRIDAZINONES AND METHODS OF USE THEREOF” (GFB (ABC), LLC, priority 2017, published 2026).

Sequences of proteins named here, by UniProt entry; tags and fusion partners are left off. Residues count along the entry.
UniProt Q9UL62, whole entry: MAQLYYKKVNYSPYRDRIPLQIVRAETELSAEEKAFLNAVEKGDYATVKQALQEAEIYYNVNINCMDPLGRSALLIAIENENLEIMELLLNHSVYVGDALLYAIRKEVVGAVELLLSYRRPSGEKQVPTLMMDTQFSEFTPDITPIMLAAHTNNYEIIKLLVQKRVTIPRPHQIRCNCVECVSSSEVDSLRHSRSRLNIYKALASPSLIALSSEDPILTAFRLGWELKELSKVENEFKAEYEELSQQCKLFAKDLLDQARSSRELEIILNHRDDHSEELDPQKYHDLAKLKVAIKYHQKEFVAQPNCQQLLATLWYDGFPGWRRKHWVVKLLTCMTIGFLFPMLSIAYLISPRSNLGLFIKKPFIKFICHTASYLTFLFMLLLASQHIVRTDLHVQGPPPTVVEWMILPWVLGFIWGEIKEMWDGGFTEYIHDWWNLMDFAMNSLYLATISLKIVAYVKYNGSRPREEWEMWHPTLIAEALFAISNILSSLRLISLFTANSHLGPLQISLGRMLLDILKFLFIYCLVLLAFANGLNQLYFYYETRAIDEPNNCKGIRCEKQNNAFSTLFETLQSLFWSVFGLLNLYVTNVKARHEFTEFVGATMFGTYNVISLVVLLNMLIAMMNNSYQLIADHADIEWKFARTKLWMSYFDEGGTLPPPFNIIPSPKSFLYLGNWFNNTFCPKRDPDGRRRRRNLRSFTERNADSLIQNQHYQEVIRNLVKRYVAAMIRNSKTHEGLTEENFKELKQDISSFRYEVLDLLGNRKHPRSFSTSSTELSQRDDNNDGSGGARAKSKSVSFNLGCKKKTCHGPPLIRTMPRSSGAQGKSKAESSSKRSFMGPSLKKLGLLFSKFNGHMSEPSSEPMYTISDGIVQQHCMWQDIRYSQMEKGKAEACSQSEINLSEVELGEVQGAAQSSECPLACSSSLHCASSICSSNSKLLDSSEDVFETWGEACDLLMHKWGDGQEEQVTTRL
UniProt Q9UBN4, 1-982 isoform 5: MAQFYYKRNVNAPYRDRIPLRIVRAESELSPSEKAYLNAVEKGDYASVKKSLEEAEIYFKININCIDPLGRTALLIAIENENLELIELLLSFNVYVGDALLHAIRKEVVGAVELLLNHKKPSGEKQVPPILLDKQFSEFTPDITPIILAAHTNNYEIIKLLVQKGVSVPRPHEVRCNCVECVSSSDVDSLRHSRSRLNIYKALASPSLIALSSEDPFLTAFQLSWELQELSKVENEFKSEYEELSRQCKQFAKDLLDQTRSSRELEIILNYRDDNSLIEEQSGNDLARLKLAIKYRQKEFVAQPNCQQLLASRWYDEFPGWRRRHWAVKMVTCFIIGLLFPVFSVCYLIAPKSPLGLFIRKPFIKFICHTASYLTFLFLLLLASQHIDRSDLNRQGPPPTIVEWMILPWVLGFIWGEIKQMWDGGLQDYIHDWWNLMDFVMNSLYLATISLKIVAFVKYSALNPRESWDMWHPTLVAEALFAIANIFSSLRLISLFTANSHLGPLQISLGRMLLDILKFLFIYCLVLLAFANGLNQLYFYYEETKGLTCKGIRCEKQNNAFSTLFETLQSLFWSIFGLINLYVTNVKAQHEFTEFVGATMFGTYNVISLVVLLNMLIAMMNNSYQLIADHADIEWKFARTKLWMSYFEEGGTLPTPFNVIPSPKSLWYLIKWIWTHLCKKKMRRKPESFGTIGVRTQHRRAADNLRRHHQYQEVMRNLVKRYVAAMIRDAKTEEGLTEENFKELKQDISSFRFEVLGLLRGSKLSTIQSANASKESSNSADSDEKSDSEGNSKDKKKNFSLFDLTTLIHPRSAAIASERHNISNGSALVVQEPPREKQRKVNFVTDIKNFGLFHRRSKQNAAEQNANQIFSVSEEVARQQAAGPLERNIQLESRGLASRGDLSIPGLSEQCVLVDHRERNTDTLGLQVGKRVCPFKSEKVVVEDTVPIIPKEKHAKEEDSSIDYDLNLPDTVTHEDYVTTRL

Where two headings read alike, the source gives them in different places.

The target of assay [1] is TRPC5 (Homo sapiens, UniProt Q9UL62). The experiment in a line: TRPC5 automated patch clamp assay (Qpatch), current block after rosiglitazone stimulation.
Assay [2] deals with TRPC4 (Homo sapiens, UniProt Q9UBN4). Description: TRPC4 FLIPR Assay (HEK-TREx hTRPC4, Englerin A stimulation). The note with it: read-out: TRPC4 FLIPR IC50, Table 8.
Where [3] appears, read: read-out: TRPC5_QP_ XC50_80, Table 5, HEK293 cells overexpressing TRPC5, 80 mV.
The mark [4] stands for this setting: read-out: TRPC5_QP_ XC50_100, Table 5, HEK293 cells overexpressing TRPC5, 100 mV.

For `Cc1ccccc1[C@H](C)N1CCN(c2cn[nH]c(=O)c2Cl)CC1`, the IC50 in assay [1] (read-out: TRPC5_QP_ XC50_80, Table 4, HEK293 cells overexpressing TRPC5, 80 mV) was in the range of 1 to 5 µM; in assay [1] (read-out: TRPC5_QP_ XC50_100, Table 4, HEK293 cells overexpressing TRPC5, 100 mV) it was 1 to 5 µM.

On to `O=C1CN(c2c(Br)n[nH]c(=O)c2Cl)CCN1Cc1ccc(F)cc1C(F)(F)F`, for which the IC50 in assay [1] (setting [3]) and in assay [1] (setting [4]) was 10 to 500 µM throughout.

`O=C1CN(c2c(Cl)cn[nH]c2=O)CCN1Cc1ccccc1C(F)(F)F`: the IC50 in assay [1] (setting [3]) and in assay [1] (setting [4]) was 5 to 10 µM each time.

`O=C1CN(c2c(Cl)cn[nH]c2=O)CCN1Cc1ccc(C(F)(F)F)cc1`: the IC50 in assay [1] (setting [3]) and in assay [1] (setting [4]) was 10 to 500 µM throughout.

With `CCc1ncccc1[C@H](C)N1CCN(c2cn[nH]c(=O)c2Cl)[C@H](C)C1`, the IC50 in assay [2] lay within 0.01 to 1000 nM.

For `O=C1CN(c2c(Br)n[nH]c(=O)c2Cl)CCN1Cc1ccccc1OC(F)(F)F`, the IC50 in assay [1] (setting [3]) and in assay [1] (setting [4]) was 10 to 500 µM each time.

With `O=C1CN(c2c(Cl)cn[nH]c2=O)CCN1Cc1ccc(F)cc1C(F)(F)F`, the IC50 in assay [1] (setting [3]) and in assay [1] (setting [4]) was 10 to 500 µM each time.
